The source of these data is published antibiotic growth screens (doi:10.1038/s41589-023-01349-8).

The other results are listed elsewhere or left out.

The subject of the test is A. baumannii ATCC 17978. The test can be described thus: relative growth (fraction of control); higher = less inhibition. As to conditions: 50 µM.
On to `COc1ccc(-c2cc(C(F)F)nn2-c2ccc(S(N)(=O)=O)cc2)cc1F`, for which the relative growth was determined as 1.04.
`Cc1ccc2nc(-c3ccncc3)cc(-c3ccccc3)c2c1` yielded a relative growth of 0.931.
`Cc1cccc2c1OCC[C@@H](N)C2=O`: the relative growth came out at 0.987.
As to `CC(=O)OCC(=O)[C@@]12OC(C)(C)O[C@@H]1CC1C3C[C@H](F)C4=CC(=O)C=C[C@]4(C)[C@@]3(F)[C@@H](O)C[C@@]12C` (stereo partly drawn), the relative growth came out at 1.32.
As to `CC(C)NC(=O)N[C@H]1CCCCNC1=O`, the relative growth was found to be 0.96.
Compound `O=c1c2cc(O)c(O)cc2oc2cc(O)c(C3O[C@H](CO)[C@@H](O)[C@H](O)[C@H]3O)c(O)c12` (stereo partly drawn) registered a relative growth of 1.04.
With `O=C(C[C@H]1C=C[C@@H](NC(=O)CN2CCOCC2)[C@H](CO)O1)NCCc1ccncc1` the figure was 0.968; with `Cl.O=c1n(CCCN2CCN(c3cccc(Cl)c3)CC2)nc2ccccn12`, 0.83; with `COc1ccc(-c2ccc3c(c2)O[C@@H](CN(C)CC2CCOCC2)[C@@H](C)CN([C@H](C)CO)S3(=O)=O)cc1`, 0.964.
As for `C[C@H](CO)N1C[C@H](C)[C@H](CN(C)Cc2cncnc2)Oc2cc(C3=CCCCC3)ccc2S1(=O)=O`, the relative growth came out at 0.755.
With `O=Cc1ccccc1O[C@@H]1O[C@H](CO)[C@H](O)[C@@H](O)[C@H]1O` the figure was 1.02.
Take `O=C(C[C@@H]1CC[C@H](NC(=O)c2cnccn2)[C@H](CO)O1)NCc1ccccc1F`: the relative growth was 0.951.
The result for `C[C@@H]1CN([C@H](C)CO)S(=O)(=O)c2ccc(-c3cccc(C(=O)N(C)C)c3)cc2O[C@H]1CN(C)C(=O)Cc1ccccn1` reads 1.1; that for `C=Cn1cnc2c1c(=O)n(C)c(=O)n2C`, 0.916; that for `CN1C(=O)c2cc(NC(=O)c3cscn3)ccc2OC[C@H]2O[C@@H](CC(=O)N3CCOCC3)CC[C@H]21`, 1.
For the compound `COc1ccc(C(=O)/C=C/c2ccccc2)cc1`, the relative growth is 0.888.
In turn, `CC(=O)Nc1ccc(CC(=O)O)cc1` gave a relative growth of 1.07.
In the case of `C[C@@H](CN1CC(=O)NC(=O)C1)N1CC(=O)NC(=O)C1`, the relative growth is 0.99.
Regarding `CC(=O)O[C@@H]1[C@H](OC(C)=O)N(C)C(=O)N1C`, the relative growth came to 1.05.
The compound `C[C@@H]1CN([C@@H](C)CO)C(=O)c2cc(-c3ccncc3)cnc2O[C@H]1CN(C)S(=O)(=O)c1ccc(F)cc1` returned a relative growth of 1.01.
Regarding `CCC(=O)Nc1ccc(C)c(C)c1`, the relative growth stood at 0.883.
In turn, `O=C1NCCc2c(O)cccc21` showed a relative growth of 1.
`Cc1nc2n(c(=O)c1CCN1CCC(c3noc4cc(F)ccc34)CC1)CCCC2` had a relative growth of 1.
In turn, `COC(=O)[C@]1(C)CCC[C@]2(C)c3ccc(C(C)C)cc3C(=O)CC12` (stereo partly drawn) returned a relative growth of 0.891.
With `C[C@@H]1CN([C@H](C)CO)S(=O)(=O)c2ccc(-c3cncnc3)cc2O[C@H]1CN(C)C(=O)Cc1ccccc1` the figure was 0.93; with `NC(=S)Nc1nc2ccccc2[nH]c1=O`, 0.899.
`CC(C)C1=CC2=CCC3[C@](C)(CCC[C@]3(C)C(=O)O)C2CC1` (stereo partly drawn) showed a relative growth of 0.981.
As for `C[C@@H]1CN([C@H](C)CO)S(=O)(=O)c2ccc(C#CC3(O)CCCC3)cc2O[C@H]1CN(C)C(=O)Cc1ccccc1`, the relative growth is 0.992.
`Cc1ccc(NC(=O)c2cc(=O)[nH]c(=O)[nH]2)cc1` yielded a relative growth of 1.17.
`O=C(Nc1cccc2cccnc12)[C@H]1[C@@H](c2ccc(C(F)(F)F)cc2)CC(=O)N1C(=O)OCc1ccccc1` registered a relative growth of 1.09.
The result for `COc1oc(C(=O)NC2CCCCC2)c(-c2ccc(Cl)cc2)c1S(=O)(=O)c1ccccc1Cl` reads 0.873; that for `C#C[C@]1(OC(C)=O)CCC2C3CCC4=C[C@@H](OC(C)=O)CCC4C3CC[C@@]21C` (stereo partly drawn), 1.15; that for `O=C(NCC[C@@H]1CC[C@H](NS(=O)(=O)c2cccc(F)c2)[C@H](CO)O1)C1CC1`, 0.993.
With `C[C@@H]1CN([C@@H](C)CO)S(=O)(=O)c2ccc(-c3cncnc3)cc2O[C@@H]1CN(C)C(=O)c1ccc2c(c1)OCO2`, the relative growth was determined as 0.997.
In turn, `O=C(C[C@H]1C=C[C@H](NS(=O)(=O)c2ccccc2)[C@@H](CO)O1)NCc1ccncn1` returned a relative growth of 1.06.
Consider `CO[C@H]1CN(C)C(=O)c2cc(NS(C)(=O)=O)ccc2OC[C@H](C)N(C(=O)C2CCOCC2)C[C@@H]1C`, for which the relative growth is 0.964.
For the compound `COc1ccc([C@@H]([C@H](Cc2ccccc2)OC(C)=O)N2C[C@@H](CC(=O)N(C)C)[C@@H]3C(=NO[C@H]3c3ccccc3)[C@@H]2Cc2ccccc2)cc1`, the relative growth came out at 1.15.
In turn, `O=C(C[C@H]1C=C[C@H](NC(=O)CN2CCOCC2)[C@@H](CO)O1)NCc1cccc(F)c1` yielded a relative growth of 0.887.
In turn, `COc1cccc(S(=O)(=O)N(C)C[C@H]2Oc3cc(C#CCC(C)C)ccc3S(=O)(=O)N([C@@H](C)CO)C[C@H]2C)c1` showed a relative growth of 1.32.
`C=C1C(=O)O[C@@H]2C[C@@]3(C)CCC[C@H](C)C3=C[C@H]12` displayed a relative growth of 1.09.
The compound `O=C(C[C@H]1C=C[C@H](NS(=O)(=O)c2ccc(F)cc2)[C@@H](CO)O1)NCc1ccc(Cl)c(Cl)c1` registered a relative growth of 0.961.
Regarding `COc1ccc(S(=O)(=O)N[C@H]2C=C[C@@H](CC(=O)N3CCN(c4ccccc4)CC3)O[C@H]2CO)cc1`, the relative growth is 0.999.
The compound `O=C(O)c1cc(-c2ccc(F)cc2F)ccc1O` came in with a relative growth of 1.01.
`CCSc1cccc2cccnc12` had a relative growth of 0.96.
The compound `CC(C)c1nc(N(C)S(C)(=O)=O)nc(-c2ccc(F)cc2)c1/C=C/[C@@H](O)C[C@@H](O)CC(=O)[O-].[Ca+2]` came in with a relative growth of 1.08.
`COc1cccc(S(=O)(=O)N[C@H]2C=C[C@@H](CC(=O)NC3CCC3)O[C@@H]2CO)c1` showed a relative growth of 1.2.
For the compound `CCCCNC(=O)NS(=O)(=O)c1ccc(C)cc1`, the relative growth is 0.951.
In turn, `Cc1cc(NC(=O)[C@@H]2CCCN2)no1` gave a relative growth of 0.993.
The result for `O=C(O)CCc1nnc2ccc(Cl)nn12` reads 1.01; that for `CN1CCC[C@@H]1CCO[C@](C)(c1ccccc1)c1ccc(Cl)cc1.O=C(O)/C=C/C(=O)O`, 1.11; that for `CCCC(C(=O)OCCN(CC)CC)(c1ccccc1)c1ccccc1.Cl`, 0.698.
`NCCNC(=O)c1nc(-c2ccc(Br)o2)no1` returned a relative growth of 1.02.
`CCOC(=O)/C(=N/O)C1=NNC(=N)SC1` returned a relative growth of 1.15.
With `COC(=O)c1c(C)cc(O)cc1O` the figure was 0.909; with `O=C(/C=C/c1ccc(O)c(O)c1)O[C@@H]1O[C@H](CO)[C@@H](O)[C@H](O)[C@H]1O`, 1.03.
`Cc1ccc2[nH]c3c(c2c1)CCC[C@H]3Nc1ccc(Cl)cc1` displayed a relative growth of 1.03.
With `O=C(Nc1c(Cl)cncc1Cl)c1ccc(OC(F)F)c(OCC2CC2)c1` the figure was 1.19; with `CCOC(=O)OC(C)OC1=C(C(=O)Nc2ccccn2)N(C)S(=O)(=O)c2ccccc21` (stereo not drawn), 1.07; with `C[C@@H]1CN([C@@H](C)CO)C(=O)CCCn2cc(nn2)CO[C@H]1CN(C)C(=O)c1ccc(N2CCN(C)CC2)cc1`, 1.13.
In turn, `COc1ccccc1CNS(C)(=O)=O` gave a relative growth of 0.929.
On to `COc1ccccc1C#Cc1ccc2c(c1)O[C@H](CN(C)Cc1ccncc1)[C@@H](C)CN([C@H](C)CO)S2(=O)=O`, for which the relative growth was 1.02.
`CN(C)CCCNC(=O)C[C@H]1C=C[C@H](NC(=O)Cc2cccnc2)[C@@H](CO)O1` came in with a relative growth of 0.998.
The compound `CCn1cc(C(=O)O)c(=O)c2cnc(N3CCCC3)nc21` displayed a relative growth of 0.997.
In turn, `O=C(C[C@@H]1CC[C@@H]2[C@H](COC[C@@H](O)CN2C(=O)c2ccccc2F)O1)N1CCN(c2ccccc2)CC1` yielded a relative growth of 0.864.
In turn, `O=C(CN1CCOCC1)N[C@H]1CC[C@H](CCn2cc(C3CC3)nn2)O[C@@H]1CO` displayed a relative growth of 0.986.
Compound `O=C(O)CCC(=O)N[C@H]1CCCCNC1=O` registered a relative growth of 1.06.
Take `CN(C)CCCNC(=O)C[C@@H]1C=C[C@H](NC(=O)Cc2cccnc2)[C@@H](CO)O1`: the relative growth came to 1.04.
In turn, `COc1ccc([Si](C)(C)[C@@H]2[C@@H](CC(=O)N3Cc4ccccc4C[C@H]3CO)O[C@]3(C(=O)N(Cc4ccc(N5CCC5=O)cc4)c4ccccc43)[C@H]2C)cc1` showed a relative growth of 0.785.
Compound `O=C(COc1ccccc1)N1CCNC1=O` yielded a relative growth of 1.04.
Compound `CC(C)Nc1ncccn1` returned a relative growth of 0.878.
`CO[C@H]1CN(C)C(=O)c2ccc(NC(=O)C3CC3)cc2OC[C@H](C)N(C(=O)CN2CCOCC2)C[C@@H]1C` yielded a relative growth of 1.05.
For the compound `Cn1cnc(CCNC(=O)C[C@H]2CC[C@H]3[C@@H](COC[C@H](O)CN3C(=O)C3CC3)O2)c1`, the relative growth is 0.889.
The result for `CCCc1cc(=O)n2ncnc2[nH]1` reads 1.27.
With `CC(C)=CCC[C@](C)(O)C1CC=C(C)CC1` (stereo partly drawn) the figure was 0.804.
With `C[C@@H]1CN([C@@H](C)CO)S(=O)(=O)c2ccc(C#Cc3cccnc3)cc2O[C@H]1CN(C)C(=O)CN(C)C` the figure was 0.974; with `Cl.NCCCCCC(=O)O`, 0.897; with `CCOC(=O)[C@H](CCc1ccccc1)N[C@@H](C)C(=O)N1CCC[C@H]1C(=O)O.O=C(O)/C=C\C(=O)O`, 1.03.
`COC(=O)c1cccc(NC(=N)N=C(N)N)c1` yielded a relative growth of 1.
Compound `CO[C@H]1C[C@@H](C[C@@H](C)[C@H]2CC(=O)[C@@H](C)/C=C(/C)[C@@H](O)[C@@H](OC)C(=O)[C@@H](C)C[C@@H](C)C=C/C=C\C=C(C)[C@H](OC)C[C@H]3CC[C@@H](C)[C@@](O)(O3)C(=O)C(=O)N3CCCC[C@@H]3C(=O)O2)CC[C@@H]1O` displayed a relative growth of 0.927.
With `C[C@@H]1COC(=O)[C@@H](Cc2ccc(F)cc2)CCC=CC[C@@H](CC(=O)N[C@H](CO)Cc2ccccc2)C(=O)N1` the figure was 1.08.
Regarding `CC(=O)NC[C@H]1C[C@@H](N(C(C)=O)S(=O)(=O)c2cccc3cncc(C)c23)CN1`, the relative growth was 0.968.
Compound `CCCCCCc1ccc(O)cc1O` registered a relative growth of 0.5.
As for `CC1(C)NC(=O)N(c2ccc([N+](=O)[O-])c(C(F)(F)F)c2)C1=O`, the relative growth came to 0.895.
In turn, `COc1cccc(S(=O)(=O)N2C[C@H](O)COC[C@@H]3O[C@H](CC(=O)NCCCN4CCOCC4)CC[C@H]32)c1` registered a relative growth of 0.819.
The result for `CCC(=O)OCC(=O)[C@@]1(OC(=O)CC)[C@@H](C)CC2C3CCC4=CC(=O)C=C[C@]4(C)C3(F)[C@@H](O)C[C@@]21C` (stereo partly drawn) reads 1.06; that for `Nc1ccc(OCC(=O)N2CCOCC2)cc1`, 1.02; that for `NCCn1cccn1`, 1.02.
The compound `C[C@H](O)C#Cc1ccc2c(c1)O[C@@H](CN(C)C(=O)CN(C)C)[C@@H](C)CN([C@@H](C)CO)S2(=O)=O` showed a relative growth of 0.895.
